{
  "source": "patent US20250032629A1",
  "about": "“NOVEL NUCLEOLIN-BINDING PEPTIDE AND USE THEREOF” (ANYGEN CO., LTD., priority 2020, published 2025)",
  "key": {"HCT-116": {"test_system": "HCT-116", "assay": "Cytotoxicity of AGM-330-CPP fusion peptides", "format": "cell-based, Human", "details": "HCT-116, fusion peptide alone, Example 11"}, "MCF-7": {"test_system": "MCF-7", "assay": "Cytotoxicity of AGM-330-CPP fusion peptides", "format": "cell-based, Human", "details": "MCF-7, fusion peptide alone, Example 11"}},
  "data": [
    {"smiles": "CC[C@H](C)[C@H](NC(=O)[C@H](CCCNC(=N)N)NC(=O)[C@H](CC(C)C)NC(=O)[C@@H](NC(=O)[C@H](CCCNC(=N)N)NC(=O)[C@H](CCSC)NC(=O)[C@@H](NC(=O)[C@@H](N)CCCNC(=N)N)[C@@H](C)CC)[C@@H](C)CC)C(=O)N[C@@H](CC(C)C)C(=O)N[C@@H](CCCCN)C(=O)N[C@@H](CC(C)C)C(=O)N[C@@H](C)C(=O)N[C@@H](CCCNC(=N)N)C(=O)NC(CSSC[C@@H](NC(=O)CCOCCOCCOCCOCCOCCOCCNC(=O)[C@H](CCCCN)NC(=O)[C@H](CC(C)C)NC(=O)[C@H](Cc1ccc(O)cc1)NC(=O)[C@@H](NC(=O)[C@H](CCSC)NC(=O)[C@H](C)NC(=O)CNC(=O)[C@H](Cc1c[nH]cn1)NC(=O)[C@@H](N)CCCNC(=N)N)C(C)C)C(=O)O)C(=O)O", "note": "(some centres unmarked) [AGM-330m-mCPP]", "values": [
      {"measurement": "IC50", "setting": "HCT-116", "value": 23.3, "unit": "µM"},
      {"measurement": "IC50", "setting": "MCF-7", "value": "> 20", "unit": "µM"}
    ]}
  ]
}
